Reference: US11180499B2, “Phosphodiesterase inhibitors” (BOARD OF REGENTS OF THE UNIVERSITY OF NEBRASKA, priority 2018, dated 2021)

By UniProt entry, the sequences of proteins in these tests, tags left out. Where a name states a change or a piece, a line headed by the entry shows the natural chain unless it says otherwise.
UniProt Q08499: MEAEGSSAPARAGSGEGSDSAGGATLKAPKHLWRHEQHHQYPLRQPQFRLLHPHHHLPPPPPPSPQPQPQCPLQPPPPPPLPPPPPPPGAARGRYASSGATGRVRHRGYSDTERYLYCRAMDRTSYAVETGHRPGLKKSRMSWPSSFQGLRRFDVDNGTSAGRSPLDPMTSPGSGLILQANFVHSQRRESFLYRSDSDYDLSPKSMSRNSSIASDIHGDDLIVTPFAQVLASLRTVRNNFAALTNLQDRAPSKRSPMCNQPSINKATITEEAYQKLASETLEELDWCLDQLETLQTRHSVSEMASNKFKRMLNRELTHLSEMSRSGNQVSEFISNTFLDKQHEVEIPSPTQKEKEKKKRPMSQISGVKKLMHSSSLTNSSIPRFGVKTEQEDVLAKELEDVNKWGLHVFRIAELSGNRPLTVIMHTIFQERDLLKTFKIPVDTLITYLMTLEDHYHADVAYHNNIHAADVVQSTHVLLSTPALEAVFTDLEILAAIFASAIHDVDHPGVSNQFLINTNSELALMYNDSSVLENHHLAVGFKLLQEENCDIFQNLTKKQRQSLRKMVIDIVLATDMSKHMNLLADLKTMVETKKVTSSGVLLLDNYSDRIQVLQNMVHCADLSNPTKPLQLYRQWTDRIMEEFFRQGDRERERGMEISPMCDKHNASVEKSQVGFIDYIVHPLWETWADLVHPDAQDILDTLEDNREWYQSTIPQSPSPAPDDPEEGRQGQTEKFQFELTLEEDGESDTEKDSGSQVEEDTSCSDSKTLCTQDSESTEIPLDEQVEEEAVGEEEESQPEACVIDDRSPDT

target: T1, PDE4D (Homo sapiens, UniProt Q08499); experiment: In vitro PDE4 inhibition study, PDE4D (BPS Bioscience); assay type: binding
T1 construct: purchased BPS Bioscience, San Diego
Description: The IC50 values of Compound 8 on PDE4 isoforms were determined by BPS Bioscience, San Diego. In brief, coat proteins (PDE4 isoforms) were added into the plate in a volume of 50 μl (2-5 ng/μl) at 4° C. overnight. The next day, Compound 8 was added to the coated plate with varying concentrations followed by addition of the corresponding biotinylated binding partner. The reaction was incubated for 2 hours at room temperature. Binding assays were performed in duplicate at each concentration and the plates were read by using Synergy 2 BioTek plate reader. The luminescence data were analyzed using the Graphpad Prism. […] Data for a reference compounds or antibodies are included as a control for inhibition. “ND” indicates the compound was not tested.

Structure (SMILES) | IC50
O=C(c1cc2cccnc2n1-c1ccnc(F)c1)N1CC(F)C1 [Compound 41, (3-fluoroazetidin-1-yl)(1-(2-fluoropyridin-4-yl)-1H-pyrrolo[2,3-b]pyridin-2-yl)methanone] | ~1900 nM
COc1ncc(-n2c(C(=O)N3CC(F)C3)cc3cccnc32)cc1Cl [Compound 39, (1-(5-chloro-6-methoxypyridin-3-yl)-1H-pyrrolo[2,3-b]pyridin-2-yl)(3-fluoroazetidin-1-yl) methanone] | 1600 nM
COc1c(F)cc(-n2c(C(=O)N3CC(F)C3)cc3cccnc32)cc1F [Compound 42, (1-(3,5-difluoro-4-methoxyphenyl)-1H-pyrrolo[2,3-b]pyridin-2-yl)(3-fluoroazetidin-1-yl) methanone] | ~6300 nM
